{"source": "patent US9995734B2", "about": "“Human T cell line assay for evaluating the immunologic identity of glatiramer acetate preparations” (Mylan Inc., priority 2013, dated 2018)", "test_system": "Donor 3 T-cell cultures", "details": "Donor 3 cultures; 100 μg/mL", "data": [{"substance": "L-glutamic acid polymer with L-alanine, L-lysine and L-tyrosine, acetate (salt) [GA]", "values": [{"measurement": "loss of cells following addition of GA", "value": "Significant loss of cells"}]}]}
